Patent publication US10669272B2, “Substituted naphthyridinone compounds useful as T cell activators” (BRISTOL-MYERS SQUIBB COMPANY, priority 2018, dated 2020)

Chains of the proteins cited; added tags and fusions are not shown. A line that says so, or that is headed by a name, gives the form on record, which may keep a tag or linker. Residues count along the entry.
UniProt P23743, 1-735 with tags or gaps: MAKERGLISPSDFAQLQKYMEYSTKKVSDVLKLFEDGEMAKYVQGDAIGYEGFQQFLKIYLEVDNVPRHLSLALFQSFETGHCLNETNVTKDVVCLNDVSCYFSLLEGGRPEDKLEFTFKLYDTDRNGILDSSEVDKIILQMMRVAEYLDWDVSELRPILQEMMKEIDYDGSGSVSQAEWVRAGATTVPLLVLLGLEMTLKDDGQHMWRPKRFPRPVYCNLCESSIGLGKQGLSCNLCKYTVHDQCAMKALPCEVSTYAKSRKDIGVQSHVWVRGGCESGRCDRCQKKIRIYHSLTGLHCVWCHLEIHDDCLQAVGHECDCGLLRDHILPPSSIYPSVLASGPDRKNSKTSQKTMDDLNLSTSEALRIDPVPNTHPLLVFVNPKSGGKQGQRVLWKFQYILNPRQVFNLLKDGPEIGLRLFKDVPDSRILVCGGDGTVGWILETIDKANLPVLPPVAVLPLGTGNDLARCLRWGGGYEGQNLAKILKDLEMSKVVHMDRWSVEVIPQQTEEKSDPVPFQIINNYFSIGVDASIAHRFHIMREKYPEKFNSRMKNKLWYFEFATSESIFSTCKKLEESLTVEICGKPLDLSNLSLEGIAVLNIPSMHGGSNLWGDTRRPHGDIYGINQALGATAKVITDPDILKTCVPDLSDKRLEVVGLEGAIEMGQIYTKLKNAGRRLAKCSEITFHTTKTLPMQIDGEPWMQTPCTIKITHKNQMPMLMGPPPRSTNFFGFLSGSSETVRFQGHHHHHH
UniProt Q13574, 1-929 with tags or gaps isoform 4: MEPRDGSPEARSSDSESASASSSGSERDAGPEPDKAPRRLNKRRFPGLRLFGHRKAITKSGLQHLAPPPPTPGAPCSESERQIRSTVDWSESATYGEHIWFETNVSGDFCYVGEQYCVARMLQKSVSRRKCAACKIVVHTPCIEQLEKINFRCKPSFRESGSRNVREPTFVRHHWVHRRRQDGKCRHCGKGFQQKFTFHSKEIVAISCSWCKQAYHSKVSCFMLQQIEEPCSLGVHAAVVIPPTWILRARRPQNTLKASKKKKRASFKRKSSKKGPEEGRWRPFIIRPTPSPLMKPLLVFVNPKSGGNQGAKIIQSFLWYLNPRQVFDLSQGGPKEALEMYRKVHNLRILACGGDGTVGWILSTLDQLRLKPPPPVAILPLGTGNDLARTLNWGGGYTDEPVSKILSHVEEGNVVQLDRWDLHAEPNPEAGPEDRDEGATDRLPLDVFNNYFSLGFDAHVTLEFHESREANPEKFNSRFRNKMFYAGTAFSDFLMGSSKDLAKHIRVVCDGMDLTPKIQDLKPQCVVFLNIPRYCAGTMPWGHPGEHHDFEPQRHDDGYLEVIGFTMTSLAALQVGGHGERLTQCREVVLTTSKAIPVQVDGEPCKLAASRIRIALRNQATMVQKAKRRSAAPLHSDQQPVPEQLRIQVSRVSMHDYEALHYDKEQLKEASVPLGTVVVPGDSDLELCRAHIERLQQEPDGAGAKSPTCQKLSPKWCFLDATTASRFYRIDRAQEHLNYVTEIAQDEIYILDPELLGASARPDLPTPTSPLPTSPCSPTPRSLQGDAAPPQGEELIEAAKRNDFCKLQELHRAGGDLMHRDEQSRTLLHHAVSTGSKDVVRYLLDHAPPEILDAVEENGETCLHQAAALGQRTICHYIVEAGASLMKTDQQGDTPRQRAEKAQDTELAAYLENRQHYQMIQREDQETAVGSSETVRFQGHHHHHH

What was measured:
human DGKα = human DGKα (Homo sapiens, UniProt P23743); experiment: DGKα LIPGLO assay (extruded liposome substrate), in vitro DGK inhibition; conditions: read-out: DGKa LIPGLO IC50
human DGKζ = human DGKζ (Homo sapiens, UniProt Q13574); experiment: DGKζ LIPGLO assay (extruded liposome substrate), in vitro DGK inhibition; conditions: read-out: DGKz LIPGLO IC50
Human venous whole blood = experiment: Human whole blood IFN-γ assay; assay type: cell-based; conditions: read-out: INFg Whole Blood Normalized Agonist EC50, normalized to 3 μM reference compound with anti-CD3 plus anti-CD28 as 100% activation;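 further: blood from healthy donors exposed to compound for 1 h before stimulation with anti-CD3 and anti-CD28 at 1 µg/mL each, IFN-γ quantified in supernatant by AlphaLISA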

| Structure (SMILES) | IC50 (human DGKα) [µM] | IC50 (human DGKζ) [µM] | EC50 (Human venous whole blood) [µM] |
| --- | --- | --- | --- |
| COc1cc(F)c(C(C)N2C[C@H](C)N(c3cc(=O)n(C)c4ccc(C#N)nc34)C[C@H]2C)c(F)c1 (stereo partly drawn) [Example 1242] | 2.7 | 0.25 | 3.8 |
| COc1cc(F)c(C(C)N2C[C@H](C)N(c3cc(=O)n(C)c4ccc(C#N)nc34)C[C@H]2C)cc1F (stereo partly drawn) [Example 1244] | 4.1 | 1.4 | 4.9 |
